Publication PMC11443494, “Dynamical responses predict a distal site that modulates activity in an antibiotic resistance enzyme” (Chemical Science, 2024)
Like-named read-outs stand apart in the source and are kept apart here.

Amino acid sequences for entries named in this document (tags omitted). Residues count along the entry.
UniProt Q9F663, 25-293 limits assumed: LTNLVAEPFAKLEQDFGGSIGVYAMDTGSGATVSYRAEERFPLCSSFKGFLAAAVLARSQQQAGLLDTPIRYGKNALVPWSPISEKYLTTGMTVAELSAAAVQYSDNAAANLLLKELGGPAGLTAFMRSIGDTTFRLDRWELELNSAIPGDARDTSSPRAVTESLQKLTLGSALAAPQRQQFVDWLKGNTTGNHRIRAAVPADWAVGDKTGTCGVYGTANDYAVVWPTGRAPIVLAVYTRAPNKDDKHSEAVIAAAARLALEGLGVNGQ
UniProt Q9F663, 25-293 G88D: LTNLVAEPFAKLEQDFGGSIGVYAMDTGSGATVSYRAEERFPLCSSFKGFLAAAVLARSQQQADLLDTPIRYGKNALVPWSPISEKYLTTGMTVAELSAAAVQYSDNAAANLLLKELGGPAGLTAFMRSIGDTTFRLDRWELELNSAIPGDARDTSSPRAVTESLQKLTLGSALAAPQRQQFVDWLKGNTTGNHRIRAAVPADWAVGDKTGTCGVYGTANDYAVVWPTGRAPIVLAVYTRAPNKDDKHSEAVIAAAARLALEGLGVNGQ

How the values were obtained:
[1] = target: T1, KPC-2 (Klebsiella pneumoniae, UniProt Q9F663); type: biochemical; conditions: 25 °C; for k cat: 10 mM HEPES pH 7.5, 150 mM NaCl, BSA, standard error in parentheses; for K M: pH 7.5, standard error in parentheses
T1 construct: made in house
Method: (§1) Antibiotic hydrolysis was measured at 25 °C in kinetics buffer (10 mM HEPES, pH 7.5 and 150 mM NaCl, 100 μg per mL bovine […] albumin (BSA)). […] Hydrolysis was followed using Greiner half area 96-well plates and a BMG CLARIOstar Plus microplate reader. GraphPad Prism 9.3.1 (GraphPad Software, La Jolla, CA, USA; https://www.graphpad.com) was used to calculate kinetic parameters. Initial rates of antibiotic hydrolysis measured across a range of antibiotic concentrations were used to calculate steady-state parameters according to the Michaelis–Menten equation.

[2] = target: T2, KPC-2^G89D (Klebsiella pneumoniae, UniProt Q9F663, G88D); experiment: Steady-state kinetics of β-lactam hydrolysis by KPC-2^G89D; type: biochemical; conditions: for k cat / K M: KPC-2^G89D, 25 °C, standard error in parentheses; for k cat: 10 mM HEPES pH 7.5, 150 mM NaCl, BSA; for K M: pH 7.5
T2 construct: made in house; host or cells: E. coli
Method: as §1

Compound	k cat [1]	k cat ([1]; listed as cefotaxime)	K M [1]	k cat [2]	K M [2]	k cat ([1]; listed as ceftazidime)	decrease in the rate of turnover ([2]; KPC-2^G89D compared to wild-type KPC-2)
CO/N=C(\C(=O)N[C@@H]1C(=O)N2C(C(=O)O)=C(COC(C)=O)CS[C@H]12)c1csc(N)n1 [Cefotaxime]	75.8 (6.61) s^−1	76 s⁻¹	199 (29) μM	523 (176) s^−1	2470 (942) μM	–	–
CC(C)(O/N=C(\C(=O)N[C@@H]1C(=O)N2C(C(=O)[O-])=C(C[n+]3ccccc3)CS[C@H]12)c1csc(N)n1)C(=O)O [Ceftazidime]	1.9 (0.12) s^−1	–	533 (69) μM	2.7 (0.36) s^−1	1340 (220) μM	1.9 s⁻¹	–
CC(=O)OCC1=C(C(=O)O)N2C(=O)[C@@H](NC(=O)Cc3cccs3)[C@H]2SC1 [Cephalothin]	112 (2.78) s^−1	–	41.6 (3.41) μM	10.8 (0.32) s^−1	45.1 (3.71) μM	–	10 fold
